Read-outs that look alike come from different tables or passages of the source.
Legend:
[1] = target: T1, electric eel AChE (eeAChE) (Electrophorus electricus, UniProt O42275); conditions: previously reported, cited from earlier work
T1 construct: purchased Sigma-Aldrich

Protein sequences, listed by entry. Tags and fused reporters are not part of them. Residues count along the entry.
UniProt O42275, 24-633: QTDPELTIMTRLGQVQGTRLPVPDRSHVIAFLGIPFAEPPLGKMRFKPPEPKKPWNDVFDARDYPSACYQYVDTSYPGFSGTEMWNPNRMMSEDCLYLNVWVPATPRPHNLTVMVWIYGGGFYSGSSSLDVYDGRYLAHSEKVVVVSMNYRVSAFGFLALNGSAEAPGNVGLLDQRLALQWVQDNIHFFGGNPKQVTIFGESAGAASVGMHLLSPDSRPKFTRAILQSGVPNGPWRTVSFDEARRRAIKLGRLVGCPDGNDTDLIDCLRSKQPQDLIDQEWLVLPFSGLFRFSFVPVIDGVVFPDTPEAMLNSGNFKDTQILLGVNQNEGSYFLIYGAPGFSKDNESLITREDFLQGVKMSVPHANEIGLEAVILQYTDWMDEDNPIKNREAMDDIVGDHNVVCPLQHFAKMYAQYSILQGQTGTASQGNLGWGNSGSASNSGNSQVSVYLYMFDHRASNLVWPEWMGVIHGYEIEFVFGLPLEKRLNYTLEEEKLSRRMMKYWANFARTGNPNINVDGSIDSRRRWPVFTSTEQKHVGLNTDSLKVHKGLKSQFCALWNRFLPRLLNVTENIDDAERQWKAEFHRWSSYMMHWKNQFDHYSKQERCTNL
UniProt P81908, whole entry: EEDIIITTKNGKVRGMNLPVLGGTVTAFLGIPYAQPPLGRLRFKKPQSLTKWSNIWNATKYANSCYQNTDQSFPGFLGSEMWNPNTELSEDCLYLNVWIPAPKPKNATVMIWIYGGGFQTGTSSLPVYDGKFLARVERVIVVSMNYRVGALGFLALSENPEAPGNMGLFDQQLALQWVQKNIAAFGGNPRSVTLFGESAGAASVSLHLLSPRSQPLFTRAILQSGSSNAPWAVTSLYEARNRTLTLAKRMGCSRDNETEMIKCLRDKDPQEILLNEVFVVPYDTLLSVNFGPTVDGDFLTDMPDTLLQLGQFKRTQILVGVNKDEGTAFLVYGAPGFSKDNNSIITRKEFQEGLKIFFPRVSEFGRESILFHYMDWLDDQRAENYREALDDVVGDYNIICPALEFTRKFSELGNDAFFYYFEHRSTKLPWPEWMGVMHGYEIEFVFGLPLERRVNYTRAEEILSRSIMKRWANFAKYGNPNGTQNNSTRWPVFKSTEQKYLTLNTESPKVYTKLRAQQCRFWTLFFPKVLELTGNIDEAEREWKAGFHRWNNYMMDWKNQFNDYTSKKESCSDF
UniProt P22303, 32-614: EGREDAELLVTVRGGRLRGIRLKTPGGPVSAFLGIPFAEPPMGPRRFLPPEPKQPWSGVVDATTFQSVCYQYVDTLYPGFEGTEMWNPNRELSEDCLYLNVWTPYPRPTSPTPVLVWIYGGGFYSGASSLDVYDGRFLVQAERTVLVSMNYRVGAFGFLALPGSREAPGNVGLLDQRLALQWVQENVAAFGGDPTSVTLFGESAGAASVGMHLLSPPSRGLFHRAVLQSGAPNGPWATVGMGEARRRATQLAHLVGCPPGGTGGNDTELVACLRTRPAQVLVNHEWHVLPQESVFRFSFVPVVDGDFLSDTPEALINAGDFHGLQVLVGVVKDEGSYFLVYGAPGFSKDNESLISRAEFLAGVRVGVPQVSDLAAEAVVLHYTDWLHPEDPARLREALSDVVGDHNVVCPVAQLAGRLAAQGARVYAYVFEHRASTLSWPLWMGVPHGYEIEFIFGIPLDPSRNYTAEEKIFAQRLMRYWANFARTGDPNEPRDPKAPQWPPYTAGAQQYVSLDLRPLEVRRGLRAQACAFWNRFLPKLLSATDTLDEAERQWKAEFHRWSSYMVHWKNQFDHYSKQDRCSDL

[2] = target: T2, horse serum BChE (hsBChE) (Equus caballus, UniProt P81908); conditions: previously reported, cited from earlier work
T2 construct: horse serum BChE (hsBChE); purchased Sigma-Aldrich; host or cells: horse serum

[3] = target: T3, human recombinant AChE (hrAChE) (Homo sapiens, UniProt P22303); conditions: previously reported, cited from earlier work
T3 construct: purchased Sigma-Aldrich

[4] = target: T1, electric eel AChE (eeAChE); experiment: Cholinesterase inhibition assay (modified Ellman method), eeAChE; format: biochemical; conditions: for IC50: mean ± SEM of three independent measurements, / = No activity, read-out: Enzyme Inhibition eeAChE IC50; for Ki: determined for compounds with IC50 < 33 μM, substrate 0.125, 0.25, 0.5 mM, read-out: Enzyme Inhibition eeAChE Ki
Description: (§1) The activities of the ChEs were determined using a modification of the Ellman method adapted for microtiter plates, as described in [47]. Stock solutions of complexes 4, 5, 6, 7, 8 and 10, as well as of ligands L2 and L3 (1 mg/mL) were prepared in 100% MeOH, whereas stock solutions of complexes 2 and 3 (1 mg/mL) were prepared in 5% DMSO in deionised water. Positive control (1 mg/mL neostigmine bromide; Sigma-Aldrich, St. Louis, MO, USA) was also prepared in 100% MeOH. The stock solutions of the potential inhibitors and the positive and negative controls were added to the wells, and progressively diluted in 100 mM potassium phosphate buffer (pH 7.4) to the final volume of 50 μL. Then, 100 μL acetylthiocholine chloride (1 mM) and 5,5′-dithiobis-2-nitrobenzoic acid (0.5 mM) in 100 mM potassium phosphate buffer (pH 7.4) were added into the microtiter plate wells. Three ChEs were used as the enzyme sources: electric eel AChE (eeAChE); human recombinant AChE (hrAChE), and horse serum BChE (hsBChE) (all Sigma-Aldrich, St. Louis, MO, USA). These were dissolved in the same buffer to the final concentration of 0.0075 U/mL. Finally, 50 μL of each ChE solution was added into the microtiter plate wells to start the reaction, which was followed spectrophotometrically at 405 nm at 25 °C over 5 min using a kinetic microplate reader (Dynex Technologies Inc., Chantilly, VA, USA). The blank reactions without the inhibitors were run with the appropriate dilutions of the solvents in which the tested compounds were initially diluted (100% MeOH or 5% aqueous DMSO), and the readings were corrected according to the appropriate blanks. Each measurement was repeated at least three times. […] The data were analysed using the OriginPro software (OriginPro 2020, OriginLab Corporation, Northampton, MA, USA).

[5] = target: T2, horse serum BChE (hsBChE); experiment: Cholinesterase inhibition assay (modified Ellman method), hsBChE; format: biochemical; conditions: for IC50: mean ± SEM of three independent measurements, / = No activity, read-out: Enzyme Inhibition hsBChE IC50; for Ki: determined for compounds with IC50 < 33 μM, substrate 0.125, 0.25, 0.5 mM, read-out: Enzyme Inhibition hsBChE Ki
Description: as §1

[6] = target: T3, human recombinant AChE (hrAChE); experiment: Cholinesterase inhibition assay (modified Ellman method), hrAChE; format: biochemical; conditions: for IC50: mean ± SEM of three independent measurements, / = No activity, read-out: Enzyme Inhibition hrAChE IC50; for Ki: determined for compounds with IC50 < 33 μM, substrate 0.125, 0.25, 0.5 mM, read-out: Enzyme Inhibition hrAChE Ki
Description: as §1

[RuCym(L1)Cl] [Complex 1]
IC50 ([1]; read-out: Enzyme Inhibition eeAChE IC50): 5.01 ± 0.8 µM | Ki ([1]; read-out: Enzyme Inhibition eeAChE Ki): 35 µM | IC50 ([2]; read-out: Enzyme Inhibition hsBChE IC50): 7.52 ± 1.3 µM | Ki ([2]; read-out: Enzyme Inhibition hsBChE Ki): 4 µM | IC50 ([3]; read-out: Enzyme Inhibition hrAChE IC50): 25.1 ± 2.5 µM | Ki ([3]; read-out: Enzyme Inhibition hrAChE Ki): 24 µM

tricarbonyldichlororuthenium(II) dimer [Ru(CO)3Cl2]2 [Precursor 10, reference compound]
IC50 [4]: > 100 µM | IC50 [5]: > 100 µM | IC50 [6]: > 100 µM

[RuCym(L1)Br] [Complex 2]
Ki [4]: 4.87 µM | IC50 [4]: 13.1 ± 2.5 µM | Ki [5]: 0.63 µM | IC50 [5]: 3.39 ± 2.3 µM | Ki [6]: 2.49 µM | IC50 [6]: 6.57 ± 4.1 µM

[RuCym(L1)pta]PF6 [Complex 6]
IC50 [4]: > 100 µM | Ki [5]: 1.1 µM | IC50 [5]: 0.39 ± 0.79 µM | IC50 [6]: > 100 µM

[RuCym(L1)I] [Complex 3]
Ki [4]: 1.43 µM | IC50 [4]: 12.9 ± 2 µM | Ki [5]: 0.8 µM | IC50 [5]: 3.48 ± 0.9 µM | Ki [6]: 1.94 µM | IC50 [6]: 6.55 ± 4.5 µM
